{
  "source": "patent US6486196B2",
  "about": "“Anticancer compounds: process for their preparation and pharmaceutical compositions containing them” (Dr. Reddy's Research Foundation, priority 2000, dated 2002)",
  "origin": "cited, not measured here",
  "system": "H9 cell",
  "details": "cited from earlier work",
  "data": [
    {"substance": "dehydroandrographolide succinic acid monoester [DASM]", "values": [
      {"measurement": "concentrations nontoxic to the H9 cell", "value": "50 to 200", "unit": "µg/mL"}
    ]}
  ]
}
